Yeast mating assay 1: variants of the scFv Ab-14

Target: peptide PDVDLGDISGINAS, taken from heptad repeat 2 (HR2) of SARS-CoV-2 spike.

The variants keep the light chain, the linker and the frameworks of Ab-14 (scFv order VH, three GGGGS repeats, VL).
VH: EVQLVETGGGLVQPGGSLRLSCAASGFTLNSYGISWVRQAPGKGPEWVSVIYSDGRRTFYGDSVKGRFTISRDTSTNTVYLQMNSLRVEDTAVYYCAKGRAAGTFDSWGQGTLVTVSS
VL: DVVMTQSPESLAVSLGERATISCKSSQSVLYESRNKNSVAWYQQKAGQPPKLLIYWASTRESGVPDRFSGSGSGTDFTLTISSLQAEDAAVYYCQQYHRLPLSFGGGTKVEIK

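The starting antibody came from a phage panning campaign against this peptide. The library (AAYL49) carries one to three amino acid substitutions per variant, with no insertions or deletions. AlphaSeq pools MATa yeast showing the antibodies with MATalpha yeast showing the peptide. After mating in shaken culture at 30 °C for 16 h, diploids were selected and their barcode pairs sequenced. Scores were corrected for input abundance and mapped to Kd with protein pairs of known affinity run in the same pool. The assay was run in three technical replicates.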

Changes read parent residue, position, new residue, counted from the first residue of the VH shown.
The read-out is the apparent dissociation constant on a log10 scale (nM): the lower, the stronger.
A mean of the replicates is given; it leaves out those without a signal.
Where no diploid with the target was found in any replicate, the entry reads "no signal": below detection, most likely a poor binder, though not proof of it.
Three control strains display no target. For library AAYL49, 15% of the pairings with them gave a signal, with a median of 4.06 and one signal in twenty below 2.83, so weak values seen in few replicates may be background.

changes,mean log10 Kd (nM),seen in
G26V/Y32H/R57L,no signal,0 of 3
N30W/I51Q/G55A,3.03,1 of 3
R57M/T58K/V64R,no signal,0 of 3
G26P/G33P/T58A,no signal,0 of 3
G26M/T28M/G61Y,no signal,0 of 3
T28P/S53D/F59S,no signal,0 of 3
F27W/Y52P/G55D,no signal,0 of 3
G26L/K65P/F105R,no signal,0 of 3
F27K/S53A/F59T,1.39,3 of 3
R56T/A101H,0.97,3 of 3
S53V/D54S/F105A,5.58,1 of 3
G26T/T28W/G55M,3.72,1 of 3
A101T/G103D/F105V,no signal,0 of 3
Y52P/R57P/Y60E,no signal,0 of 3
F59M/G103T/F105H,1.41,3 of 3
G33V/T58E/V64W,no signal,0 of 3
N30E/S63A/R100Y,0.82,3 of 3
S35A/D62H/V64H,no signal,0 of 3
S35R/T58F/G99Y,3.88,1 of 3
Y32E/G33M/D54H,5.00,2 of 3
V50H/D54Q/G103T,no signal,0 of 3
F27V/L29W/G55K,no signal,0 of 3
S31L/D54E/D106P,no signal,0 of 3
L29V/Y52D/A102R,4.93,2 of 3
S53F/V64R/G103R,no signal,0 of 3
F59K/R100W/G103H,3.68,1 of 3
S31N/R56A/F105S,no signal,0 of 3
S31N/I51E/T104N,4.73,1 of 3
S53H/G103F/F105T,no signal,0 of 3
Y32L/V50N/D106F,4.49,2 of 3
N30S/D62N/A101H,1.33,3 of 3
T28K/L29S/I51A,no signal,0 of 3
F27N/G55F/S63F,4.04,2 of 3
S35M/R56V/R57V,no signal,0 of 3
Y32R/S63C/T104M,no signal,0 of 3
L29Q/R57D/S107N,no signal,0 of 3
S35I/Y52K/F105C,no signal,0 of 3
Y52Q/R56Y/Y60C,no signal,0 of 3
G26H/I34H/S107H,no signal,0 of 3
S31L/D54C,no signal,0 of 3
R56C/Y60I/D106Q,5.06,1 of 3
L29T/S35V/F105P,4.59,1 of 3
K65F/G99V,1.33,3 of 3
S53C/A101I/G103T,4.52,1 of 3
T58Y/G61Y/A102W,3.16,1 of 3
I34R/V64G,4.38,3 of 3
G26N/F27T/S53R,3.46,3 of 3
S31W/I34T/A101S,3.71,1 of 3
F27V/V50A/I51Y,no signal,0 of 3
G26H/V50P/D106E,4.34,2 of 3
R57S/S63R/R100V,no signal,0 of 3
T58K/F59G/G99D,no signal,0 of 3
S35F/Y60W,no signal,0 of 3
F27H/Y52D/K65D,4.84,2 of 3
I51S/Y52Q/D106L,no signal,0 of 3
F27Q/I34Q,no signal,0 of 3
L29E/R57L/Y60K,no signal,0 of 3
K65M/G99I,no signal,0 of 3
N30F/Y52D/S107N,no signal,0 of 3
I34D/I51M/D54H,no signal,0 of 3
D62M/A102Q/G103M,no signal,0 of 3

The 5 strongest on average among those seen in every replicate, once more:

changes	mean log10 Kd (nM)	seen in
N30E/S63A/R100Y	0.82	3 of 3
R56T/A101H	0.97	3 of 3
K65F/G99V	1.33	3 of 3
N30S/D62N/A101H	1.33	3 of 3
F27K/S53A/F59T	1.39	3 of 3

Source: Engelhart et al. 2022 (doi:10.1038/s41597-022-01779-4), MIT Lincoln Laboratory and A-Alpha Bio; data file from the FLAb repository.